According to ChEMBL document CHEMBL5523765, “Peptidic Boronic Acid Plasmodium falciparum SUB1 Inhibitors with Improved Selectivity over Human Proteasome” (J Med Chem, 2024):

Experiment: Selectivity ratio IC50 for human 20s proteasome beta5 subunit mediated chymotrypsin-like activity to IC50 for Plasmodium falciparum SUB1

Structure (SMILES)	Ratio IC50
CC(=O)N[C@H](C(=O)N[C@H](C(=O)NCC(=O)N[C@@H](C)B(O)O)[C@@H](C)O)C1CCCC1	3.8
CC(=O)N[C@H](C(=O)N[C@H](C(=O)NCC(=O)N[C@@H](C)B(O)O)C(C)C)C1CCCC1	5.7
